Molecular target: GST-DPY-30 (full-length DPY-30, wild type, in fusion with GST)
Test: peptide or protein array

binding result: binds
Binder: MGWGAVDEHTLADVLYHVETE (peptide, UniProt Q9UBL3-3 503-523, looked up) [ASH2L^SDI (503-523) peptide with V509 replaced by aspartic acid, on the SPOT array]
